For this data set the following is noted: 500 ml phosphate buffer, Type II, paddle. The protocol:
The media used was a 500 ml phosphate buffer, Type II, and dissolution was assisted by using a paddle.

For the molecule `CCOC(=O)C1=C(C)NC(C)=C(C(=O)OC)C1c1cccc(Cl)c1Cl` (racemic) [felodipine], the intrinsic dissolution rate came to 0.00086 mg min^−1 cm-^−2.

The record behind these values is patent US20020086061A1 (priority 1999, published 2002).
